Source: ChEMBL document CHEMBL1152717, “Discovery of mu-opioid selective ligands derived from 1-aminotetralin scaffolds made via metal-catalyzed ring-opening reactions” (Bioorg Med Chem Lett, 2009)

Protein sequences, listed by entry. Tags and fused reporters are not part of them. Lines headed by an entry give the natural chain unless they say otherwise; changes in a name come on top.
UniProt P35372, whole entry, looked up: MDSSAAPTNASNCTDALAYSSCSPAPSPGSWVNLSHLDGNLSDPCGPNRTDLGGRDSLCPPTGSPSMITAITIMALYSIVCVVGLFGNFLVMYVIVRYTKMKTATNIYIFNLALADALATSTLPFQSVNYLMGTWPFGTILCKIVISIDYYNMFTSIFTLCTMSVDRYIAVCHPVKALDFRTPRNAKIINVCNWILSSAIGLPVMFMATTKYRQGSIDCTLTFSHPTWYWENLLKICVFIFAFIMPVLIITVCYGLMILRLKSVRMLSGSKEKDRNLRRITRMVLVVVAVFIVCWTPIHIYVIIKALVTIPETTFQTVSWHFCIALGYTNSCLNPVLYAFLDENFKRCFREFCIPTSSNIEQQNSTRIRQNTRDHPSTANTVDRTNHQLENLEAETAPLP
UniProt P41145: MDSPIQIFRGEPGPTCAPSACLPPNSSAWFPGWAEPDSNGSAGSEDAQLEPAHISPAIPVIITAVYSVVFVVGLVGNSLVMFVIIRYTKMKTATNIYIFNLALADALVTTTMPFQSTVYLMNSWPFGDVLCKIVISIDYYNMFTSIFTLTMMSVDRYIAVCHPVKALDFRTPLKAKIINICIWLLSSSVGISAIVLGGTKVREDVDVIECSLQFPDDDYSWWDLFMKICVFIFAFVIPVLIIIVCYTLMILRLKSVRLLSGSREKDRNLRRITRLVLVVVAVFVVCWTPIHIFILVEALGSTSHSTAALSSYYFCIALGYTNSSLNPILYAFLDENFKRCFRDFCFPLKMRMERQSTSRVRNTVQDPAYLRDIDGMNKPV
UniProt P41143, whole entry, looked up: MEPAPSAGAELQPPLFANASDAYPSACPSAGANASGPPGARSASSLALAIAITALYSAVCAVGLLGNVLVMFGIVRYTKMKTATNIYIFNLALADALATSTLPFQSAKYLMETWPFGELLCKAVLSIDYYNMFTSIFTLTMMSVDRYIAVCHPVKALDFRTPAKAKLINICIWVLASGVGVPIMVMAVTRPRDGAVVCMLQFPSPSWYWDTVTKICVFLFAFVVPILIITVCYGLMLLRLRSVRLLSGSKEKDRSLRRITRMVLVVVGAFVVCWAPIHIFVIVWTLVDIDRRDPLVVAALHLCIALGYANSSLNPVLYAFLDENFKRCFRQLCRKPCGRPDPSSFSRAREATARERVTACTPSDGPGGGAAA

Legend:
Mu-type opioid receptor [1] = target: T1, Mu-type opioid receptor (Homo sapiens, UniProt P35372); test: Displacement of [125I]FK33824 from human cloned mu opioid receptor
[2] = target: Kappa-type opioid receptor (Homo sapiens, UniProt P41145); test: Displacement of [125I]U69593 from human cloned kappa opioid receptor
[3] = target: Delta-type opioid receptor (Homo sapiens, UniProt P41143); test: Displacement of [125I]deltorphin 2 from human cloned delta opioid receptor
Mu-type opioid receptor [4] = target: T1, Mu-type opioid receptor

Row | Compound | IC50 (Mu-type opioid receptor [1]) | IC50 [2] | IC50 [3] | EC50 (Mu-type opioid receptor [4])
1 | COCCN(C(=O)Cc1ccccc1Br)C1c2cc(OC)c(OC)cc2CCC1N(C)C (stereo unspecified) | 4830 nM | 1010 nM | > 10000 nM | –
2 | COCCN(C(=O)COc1ccc(Cl)cc1)C1c2cc(OC)c(OC)cc2CCC1N(C)C (stereo unspecified) | 245 nM | 155 nM | > 10000 nM | > 90000 nM
3 | COCCN(C(=O)Cc1ccc(Cl)cc1)C1c2cc(OC)c(OC)cc2CCC1N(C)C (stereo unspecified) | 1120 nM | 922 nM | > 10000 nM | > 90000 nM
